This assay deals with Cannabinoid receptor 1 (Mus musculus, UniProt P47746). The experiment in a line: Binding affinity towards Cannabinoid receptor 1 was determined using [3H]-CP- cannabinoid as radioligand with mouse brain membrane.

The chains behind the UniProt entries cited, without tags or fusion partners.
UniProt P47746, whole entry: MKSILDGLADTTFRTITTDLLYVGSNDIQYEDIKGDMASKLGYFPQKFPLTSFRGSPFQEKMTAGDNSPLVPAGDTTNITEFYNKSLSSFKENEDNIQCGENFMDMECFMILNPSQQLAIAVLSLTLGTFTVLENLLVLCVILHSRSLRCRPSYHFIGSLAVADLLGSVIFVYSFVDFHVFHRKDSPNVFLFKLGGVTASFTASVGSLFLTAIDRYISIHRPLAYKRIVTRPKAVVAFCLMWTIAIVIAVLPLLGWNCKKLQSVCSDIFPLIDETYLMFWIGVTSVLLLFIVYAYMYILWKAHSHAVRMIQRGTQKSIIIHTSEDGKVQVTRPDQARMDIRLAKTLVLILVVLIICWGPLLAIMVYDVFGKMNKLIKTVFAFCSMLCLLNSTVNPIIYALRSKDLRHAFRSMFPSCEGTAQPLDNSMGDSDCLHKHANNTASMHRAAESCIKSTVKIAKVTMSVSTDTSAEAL

Compound `CCCCC/C=C\C/C=C\C/C=C\C/C=C\CCCC(=O)NCCO` [ANANDAMIDE] registered an IC50 of 12 µM.
